E-sel inducer: E-selectin induction in HUVECs, primary screen, imaging, HUVEC, immunofluorescence imaging, single point; normalized: neutral wells 0, TNF-alpha wells 100; P16581; AID 686992, 2013; activation, % at 7.58 µM; actives 0.37% (n = 260,000);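 active means mean E-selectin-positive cell signal at least 10% of the positive control, reached in at least 60% of replicates, without over 20% cell loss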
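Test system: HUVEC | Signal: Immunofluorescence imaging | Read-out: Percent E-selectin-positive cells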
RAD54 inh: inhibitors of human RAD54 branch migration, primary screen, biochemical, fluorescence, single point. DNA repair and recombination protein RAD54-like (Homo sapiens), Q92698. RAD54 Holliday junction branch migration, FAM/BHQ fluorescence. inhibition, % at 10.4 µM. actives 0.14% (n = 360,000);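 active means mean normalized replicate activity at least 40 and at least half of replicates scoring 40 or more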;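 further: inhibitors cause a drop in the FAM fluorescence signal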
AF4-AF9 inh: inhibitors of AF4 peptide binding to AF9, primary screen, biochemical, AlphaScreen, biotin-AF4 peptide, FLAG-AF9, single point. Protein AF-9 (Homo sapiens), P42568. inhibition, % at 10 µM. actives 0.47% (n = 350,000). AID 651704, 2012;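 active means every replicate reaching a set inhibition limit, whatever the replicate mean, cut at about 25% in these data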
RAD52 anneal inh: RAD52 DNA annealing inhibitors, primary screen, biochemical, FRET, single point, set 2; actives 0.46% (n = 360,000); recombinant RAD52 DNA annealing, FRET fluorescence; DNA repair protein RAD52 homolog (Homo sapiens), P43351; inhibition, % at 18.7 µM;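 active means every replicate showing at least 50% inhibition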
UUG fidelity: alters start codon recognition fidelity in yeast. S. cerevisiae UUG-firefly luciferase reporter, luminescence/redox ratio. AID 602363. activity score, % at 18.7 µM. hit rate 0.13% among 350,000;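 active = replicate mean at a twofold rise or more, about +100% in these data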;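 note: firefly luciferase made from a UUG start codon reports start codon fidelity; reporter light over untreated wells divided by growth signal over untreated wells; some hits fall short of that in this replicate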
SIRT5 block: SIRT5 desuccinylase inhibitors, primary screen, biochemical, fluorescence imaging, single point, set 5; NAD-dependent protein deacylase sirtuin-5, mitochondrial (Homo sapiens), Q9NXA8; AID 652115, 2013; Purified SirT5, succinyl-peptide AMC, trypsin-coupled fluorescence; actives 1.1% (n = 330,000); inhibition, % at 15 µM; in the data active means inhibition above about 15%
A number is an active result; - = inactive; . = not tested or not shown. An excerpt weighted towards active compounds, which were near 1.8% of everything screened.

SMILES	E-sel inducer	RAD54 inh	AF4-AF9 inh	RAD52 anneal inh	UUG fidelity	SIRT5 block
CCS(=O)(=O)Nc1ccc2c(c1)C(=O)N(C)C[C@H](OC)[C@@H](C)CN(C(=O)NC(C)C)[C@@H](C)CO2	-	-	-	-	-	-
COc1ccc(NC(=O)N(C)C[C@@H]2OCCCC[C@H](C)Oc3ccc(NC(=O)Nc4ccccc4)cc3C(=O)N([C@H](C)CO)C[C@@H]2C)cc1	-	-	-	-	-	-
COc1ccccc1NC(=O)N[C@@H]1CC[C@@H](CCNC(=O)Cc2ccccn2)O[C@@H]1CO	-	-	-	-	-	-
C[C@H](NC(=O)[C@@H]1CCCN1C(=O)[C@@H]1CCCN1C(=O)OC(C)(C)C)c1ccccc1	-	.	-	-	.	16.4
Cc1cc(C)nc(N/N=C/c2sccc2C)n1	.	.	-	-	.	19.7
CCOC(=O)C(NC(C)=O)(Nc1ccc(S(=O)(=O)Nc2ncccn2)cc1)C(F)(F)F (stereo not given)	.	.	-	-	.	19.0
CCOC(=O)C(NC(C)=O)(Nc1ccc(S(=O)(=O)Nc2nccs2)cc1)C(F)(F)F (stereo not given)	.	-	.	.	-	.
COc1ccc(N2C(=O)[C@@H]3[C@H](C2=O)[C@H](C(C)=O)N2c4ccccc4C=C[C@@H]32)cc1	.	-	-	-	-	-
COc1ccc(C2C(C(=O)c3ccccc3)N3c4ccccc4C=CC3C2[N+](=O)[O-])cc1 (stereo not given)	119.6	.	-	-	.	-
COc1ccc(S(=O)(=O)Nc2ccc3c(c2)C(=O)N([C@H](C)CO)C[C@H](C)[C@@H](CN(C)C(=O)Nc2ccc(F)cc2)O3)cc1	-	-	-	-	-	-
COc1ccc(S(=O)(=O)Nc2ccc3c(c2)C(=O)N([C@@H](C)CO)C[C@@H](C)[C@@H](CN(C)C(=O)Nc2ccc(F)cc2)OCCCC[C@H](C)O3)cc1	-	-	-	-	-	-
COc1ccc(S(=O)(=O)Nc2ccc3c(c2)C(=O)N([C@H](C)CO)C[C@H](C)[C@H](CN(C)C(=O)Nc2ccc4c(c2)OCO4)OCCCC[C@H](C)O3)cc1	-	-	-	-	-	17.4
COc1ccc(NC(=O)N(C)C[C@@H]2Oc3ccc(NS(=O)(=O)c4ccc(F)cc4)cc3C(=O)N([C@H](C)CO)C[C@H]2C)cc1	-	-	-	-	-	40.2
COc1ccc(S(=O)(=O)Nc2ccc3c(c2)C(=O)N([C@H](C)CO)C[C@H](C)[C@H](CN(C)C(=O)Nc2ccc(F)cc2)OCCCC[C@H](C)O3)cc1	-	-	-	-	-	16.7
CN(C)C(=O)C[C@H]1CC[C@H](NS(=O)(=O)c2ccccc2)[C@@H](CO)O1	-	-	-	-	-	-
COc1ccc(NC(=O)N(C)C[C@H]2Oc3c(NS(=O)(=O)c4ccccc4)cccc3C(=O)N([C@@H](C)CO)C[C@H]2C)cc1	-	.	.	.	.	.
Cc1noc(C)c1NC(=O)Nc1ccc2c(c1)CC(=O)N([C@H](C)CO)C[C@@H](C)[C@H](CN(C)C(=O)Nc1ccc(F)cc1)O2	38.7	-	-	-	-	-
Cc1noc(C)c1NC(=O)N(C)C[C@H]1Oc2ccc(NC(=O)Nc3ccc(F)cc3)cc2CC(=O)N([C@@H](C)CO)C[C@@H]1C	-	-	-	-	-	-
C[C@@H]1CN([C@@H](C)CO)C(=O)Cc2cc(NC(=O)Nc3ccc(F)cc3)ccc2O[C@H]1CN(C)C(=O)Nc1ccc(C(F)(F)F)cc1	51.8	-	.	.	-	.
C[C@@H]1CN([C@@H](C)CO)C(=O)Cc2cc(NC(=O)Cn3cnnn3)ccc2O[C@H]1CN(C)C(=O)Nc1ccc(C(F)(F)F)cc1	414.9	-	-	-	-	-
Cc1noc(C)c1NC(=O)N(C)C[C@H]1Oc2ccc(NC(=O)Cc3ccccc3)cc2CC(=O)N([C@@H](C)CO)C[C@@H]1C	-	-	-	77.3	-	-

Screening data from PubChem BioAssay.
